Measured values from US10087260B2, “Anti-HER2 antibody and conjugate thereof” (REMEGEN, LTD., priority 2013, dated 2018).

Columns and labels:
[1] = test system: HER2+ cells SK-BR-3, BT474; experiment: Flow cytometry binding with HER2 positive breast cancer cells; format: cell-based, human; settings: 6 μg antibody, SK-BR-3 and BT474
Protocol: (§1) After 2 times of thoroughly washing with 4 ml cold PBS, the antibodies binding with the cell surface were detected by R-PE-coupled goat anti-human IgG Fc specific second antibody (15 μl, 25 μg/mL), and then analyzed by flow cytometer (BD FACSCalibur). No binding was detected between the human IgG1 (control group) and the three kinds of cancer cells. […] By titering the concentration of anti-HER2 antibody and analyzing the cell numbers in flow cytometry, a cell-based binding curve of anti-HER2 antibody with HER2 on cell surface was obtained, and the result was shown in FIG. 4b.

MDA-MBA468 = experiment: Flow cytometry binding with HER2 negative cells; format: cell-based, human; settings: 6 μg antibody
Protocol: as §1

[2] = test system: BT474 human breast cancer transplantation tumor; experiment: Tumor inhibition of RC48, BT474 human breast cancer transplantation tumor model; format: in vivo, nude mouse; settings: 10 mg/kg, administered three times
Source text: Human breast cancer BT474 nude mouse transplantation tumor model was established by inoculating BT474 cells into nude mouse subcutaneously. After growing continuously in vivo for 3 generations, the tumor tissue which grew vigorously was taken and cut into about 1.5 mm3, and inoculated subcutaneously to right-side armpit of nude mouse (provided by Shanghai Slac Laboratory Animal Co. Ltd., with the certificate No. 2007000540582 and license No. SCXK(hu)2012-0002) under sterile conditions. The diameter of the nude mouse transplantation tumor was measured by vernier caliper. The animals were grouped randomly until the tumor grew up to 100˜300 mm3.

[3] = test system: BT-474/L1.9 human breast cancer; experiment: Herceptin- and Lapatinib-resistant BT-474/L1.9 nude mouse subcutaneous transplantation tumor model; format: in vivo; settings: 10 mg/kg, once per week, totally 3 times
Protocol: (§2) SPF-level BALB/c nude mice were inoculated subcutaneously with a certain amount of BT-474/L1.9 tumor cells, and after the tumor growing to 100-200 mm3, the animals were randomly grouped. […] The tumor volume was measured 2 times a week. The murine weight was weighted and the resistant capacity of the tumor-bearing mice towards the drugs was observed. The data were recorded. The tumor volume and the tumor-inhibition rate of each tumor-bearing mouse were calculated at different observation time points.

[4] = test system: NCI-N87 human gastric cancer; experiment: NCI-N87 human gastric cancer nude mouse subcutaneous transplantation tumor model; format: in vivo; settings: 10 mg/kg, dosing once per week, for 3 times
Protocol: [Worded in the source for another cell line; this cell line is reported under the same test.] as §2

[5] = test system: HER2/neu over-expressed metastatic breast cancer; settings: cited from earlier work

Trastuzumab [Herceptin]
binding with HER2 positive cells [1]: strong binding
binding with HER2 negative cells (MDA-MBA468): no binding
tumor-inhibitory effect on BT474 tumors [2]: inhibited
tumor-inhibition rate [3]: 51%
tumor-inhibition rate [4]: 49%
subjects with no or only weak response ([5]; HER2-overexpressed breast cancer, Herceptin therapy): about 85%
effective rate ([5]; clinical trials, combination therapy with chemical drugs): up to 50%
